Source: publication PMC3824626 (Bioorganic & medicinal chemistry letters, 2013)

Protein sequences, listed by entry. Tags and fused reporters are not part of them. Lines headed by an entry give the natural chain unless they say otherwise; changes in a name come on top.
UniProt P54132: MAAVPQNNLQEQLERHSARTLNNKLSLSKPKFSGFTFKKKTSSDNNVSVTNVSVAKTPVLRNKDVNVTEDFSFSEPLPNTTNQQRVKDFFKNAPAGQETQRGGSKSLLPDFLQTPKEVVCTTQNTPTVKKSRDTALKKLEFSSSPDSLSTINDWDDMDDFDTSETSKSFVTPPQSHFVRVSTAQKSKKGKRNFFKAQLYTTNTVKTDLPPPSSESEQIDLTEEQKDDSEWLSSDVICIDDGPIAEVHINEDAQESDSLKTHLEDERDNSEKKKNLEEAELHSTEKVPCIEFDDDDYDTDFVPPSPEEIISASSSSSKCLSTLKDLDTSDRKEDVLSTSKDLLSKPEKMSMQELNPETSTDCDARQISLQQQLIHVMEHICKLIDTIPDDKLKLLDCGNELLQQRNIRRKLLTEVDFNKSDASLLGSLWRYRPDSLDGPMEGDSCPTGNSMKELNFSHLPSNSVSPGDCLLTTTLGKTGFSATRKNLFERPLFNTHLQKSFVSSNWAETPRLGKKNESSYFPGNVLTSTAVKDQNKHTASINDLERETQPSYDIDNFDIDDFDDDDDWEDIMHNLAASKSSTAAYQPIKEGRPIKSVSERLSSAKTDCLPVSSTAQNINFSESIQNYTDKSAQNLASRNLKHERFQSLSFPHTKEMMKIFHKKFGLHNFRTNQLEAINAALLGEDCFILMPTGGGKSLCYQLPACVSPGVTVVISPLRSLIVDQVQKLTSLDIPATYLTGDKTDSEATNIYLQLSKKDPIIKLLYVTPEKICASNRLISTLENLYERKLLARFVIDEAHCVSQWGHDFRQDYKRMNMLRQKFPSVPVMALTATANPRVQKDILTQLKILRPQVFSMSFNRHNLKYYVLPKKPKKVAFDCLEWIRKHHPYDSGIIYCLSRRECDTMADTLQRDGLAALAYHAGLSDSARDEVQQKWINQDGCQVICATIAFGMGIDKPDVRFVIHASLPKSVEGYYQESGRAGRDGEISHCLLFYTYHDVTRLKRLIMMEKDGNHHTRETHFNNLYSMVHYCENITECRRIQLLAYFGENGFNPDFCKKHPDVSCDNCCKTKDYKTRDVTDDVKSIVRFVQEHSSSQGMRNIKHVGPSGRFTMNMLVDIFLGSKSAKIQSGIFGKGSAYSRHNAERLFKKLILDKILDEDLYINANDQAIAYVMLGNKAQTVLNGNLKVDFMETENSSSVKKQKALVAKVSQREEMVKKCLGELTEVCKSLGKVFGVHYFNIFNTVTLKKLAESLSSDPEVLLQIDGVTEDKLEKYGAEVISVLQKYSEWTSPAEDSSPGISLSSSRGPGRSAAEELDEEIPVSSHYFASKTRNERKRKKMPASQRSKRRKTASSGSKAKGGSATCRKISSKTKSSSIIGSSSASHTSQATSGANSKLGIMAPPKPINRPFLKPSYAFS

Target: BLM helicase (Homo sapiens, UniProt P54132)
Assay: gel-based BLM DNA unwinding assay
Format: biochemical

For `O=C(Nc1ccc(F)c(C(F)(F)F)c1)Nc1nnc(-c2ccncc2)s1` [ML216], the “IC50 (BLM)” value was “good activity”.
